This is an account of results in US20230203003A1, “Notch Inhibitors and Uses Thereof” (StemSynergy Therapeutics, Inc., priority 2020, published 2023).

Chains of the proteins cited; added tags and fusions are not shown. Residues count along the entry.
UniProt P46531, 1754-2555 limits assumed: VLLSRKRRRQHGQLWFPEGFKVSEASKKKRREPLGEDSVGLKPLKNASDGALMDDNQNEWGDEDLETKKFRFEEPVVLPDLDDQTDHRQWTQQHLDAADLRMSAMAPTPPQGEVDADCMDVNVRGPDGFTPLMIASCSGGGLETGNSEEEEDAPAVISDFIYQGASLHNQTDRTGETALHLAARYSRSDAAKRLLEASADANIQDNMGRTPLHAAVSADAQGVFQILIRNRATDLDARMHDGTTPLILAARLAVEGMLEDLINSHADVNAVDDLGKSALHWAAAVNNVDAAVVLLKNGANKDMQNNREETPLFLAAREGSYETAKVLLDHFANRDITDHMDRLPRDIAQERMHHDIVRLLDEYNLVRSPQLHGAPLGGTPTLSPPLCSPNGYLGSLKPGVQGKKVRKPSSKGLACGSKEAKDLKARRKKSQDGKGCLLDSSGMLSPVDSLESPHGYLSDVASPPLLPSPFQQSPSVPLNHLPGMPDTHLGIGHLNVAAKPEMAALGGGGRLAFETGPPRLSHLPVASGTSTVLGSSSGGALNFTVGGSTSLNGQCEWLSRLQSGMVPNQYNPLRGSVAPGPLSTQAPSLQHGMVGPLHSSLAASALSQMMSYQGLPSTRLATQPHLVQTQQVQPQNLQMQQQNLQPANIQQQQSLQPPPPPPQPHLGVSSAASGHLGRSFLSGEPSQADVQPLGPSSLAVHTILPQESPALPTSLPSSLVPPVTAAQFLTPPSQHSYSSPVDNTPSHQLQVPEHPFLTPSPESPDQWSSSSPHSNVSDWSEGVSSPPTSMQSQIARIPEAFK

For experiment [1], the target named is hNotch1ICD (Homo sapiens, UniProt P46531). The experiment can be described thus: Notch1 Reporter Assay (Dox-inducible Notch1-ICD, CSL-responsive luciferase in 293A cells). Here is the method:
293A cells expressing 1) pCMV-Tet-On 3G, 2) pLV[Tet]-Puro-TRE3G>Notch1-ICD, 3) pLV[Tet]-Puro-TRE3G>Notch2-ICD, 4) pLV[Tet]-Puro-TRE3G>Notch3-ICD, and 5) pCSL-RElement-Luc were used. When Doxycycline is added, the Tet-ON gene activates expression of hNotch1ICD, which together with endogenous NTC components binds to CSL responsive elements (pCSL-RElement-Luc) and expresses luciferase. 1 ×× 10^4 cells are plated in 100 µL (96-well format). 24 h later, compounds (10 mM stock in DMSO) are diluted in DMSO to 200X, then added (5 ul into 1 mL) to cell culture media containing 50 ng/mL Dox. This is then added 1:1 to cells. Final DMSO = 0.25%, Dox = 25 ng/mL. After 24 h, media is discarded, and cells are lysed in passive lysis buffer (Promega). Cells are rocked at room temperature for 15 min and then lysate is divided for luciferase assay (Luciferase Assay System, Promega) and cell viability (CellTiter Glo 2.0, Promega). Raw luciferase is normalized to cell viability, and then scaled to DMSO wells. Results are analyzed and IC50′s are determined in GraphPad by nonlinear regression curve fitting (4 parameter) of dose response curves.
(Reporter assays use an easily measured gene product as a stand-in for the process of interest.)

The subject of experiment [2] is OE33 Esophageal Adenocarcinoma cell line. The experiment can be described thus: OE33 Colony Formation Assay. As to conditions: read-out: OE33 Colony Formation Assay EC50; OE33 cells, 200 cells/well, 7 days, CellTiter-Glo. Background: ATP-based viability assays read luminescence as a measure of living cells.
[3] abbreviates: read-out: Notch1 Reporter Assay IC50, 24 h, luciferase normalized to cell viability.

A word on the IC50: it is the midpoint of a concentration-inhibition curve. What is called EC50 is the midpoint of the concentration-response curve.

The structures appear in SMILES notation. Read-outs that look alike come from different tables or passages of the source.

`CC(C)Cn1c(=O)c(C(=O)Nc2ccc(Cl)cn2)c(O)c2ccccc21`: the IC50 in experiment [1] (setting [3]) is 11.8 µM.

Consider `CC(C)Cn1c(=O)c(C(=O)Nc2cccc(N3CCN(C)CC3)c2)c(O)c2ccccc21`, for which, in experiment [1] (read-out: Notch1 Reporter Assay IC50, 24 h, luciferase normalized to cell viability, tested form: formate), the IC50 is 10.2 µM.

Consider `O=C(Nc1ncccc1O)c1c(O)c2c(n(Cc3ccco3)c1=O)CCCC2`, for which the concentration for half-maximal inhibition (IC50) in experiment [1] (setting [3]) is 12.8 µM. Further, the EC50 in experiment [2] is 3.4 µM.

`CC(C)Cn1c(=O)c(C(=O)Nc2cccc(N3CCN(C)CC3)c2)c(O)c2ccccc21` [560(01)]: the IC50 in experiment [1] (setting [3]) came to 12.3 µM. In addition, in experiment [2], the EC50 amounted to 2.3 µM.

With `CC(C)Cn1c(=O)c(C(=O)Nc2cccc(N3CCN(C)CC3)c2)c(O)c2ccccc21` [560(02)], the 50% inhibitory concentration (IC50) in experiment [1] (setting [3]) stood at 7.7 µM. Moreover, in experiment [2], the EC50 is 4.1 µM.

Turning to `CC(C)Cn1c(=O)c(C(=O)Nc2cccc(N3CCN(C)CC3)c2)c(O)c2ccccc21` [560(04)], the IC50 in experiment [1] (setting [3]) came to 9 µM. Further, the EC50 in experiment [2] came to 2.3 µM.
